Measurements as given in patent US20090325959A1 (priority 2008, published 2009).

System: human monocytes
Assay: Human monocyte cytokine secretion assay (LPS-stimulated)
Format: cell-based
Conditions: potencies approximately 170 nM to 1 μM

For `NC(=O)Cn1ccc2cc(CN3CC[C@@H](Nc4cccc5cnccc45)C3)ccc21` [Compound 2.059, (R)-2-(5-((3-(isoquinolin-5-ylamino)pyrrolidin-1-yl)methyl)-1H-indol-1-yl)acetamide], the “secretion of IL-1β, TNF-α and IL-9 from LPS-stimulated human monocytes” value was “dose-dependently reduced”.
